Experimental data published in US20140308239A1 (ELEVEN BIOTHERAPEUTICS, published 2014).

Target: T1, soluble recombinant human IL-1RI (corresponding to the extracellular domain of IL-1RI) (human, UniProt P14778 18-336)
T1 construct: extracellular domain
T1 sequence (looked up): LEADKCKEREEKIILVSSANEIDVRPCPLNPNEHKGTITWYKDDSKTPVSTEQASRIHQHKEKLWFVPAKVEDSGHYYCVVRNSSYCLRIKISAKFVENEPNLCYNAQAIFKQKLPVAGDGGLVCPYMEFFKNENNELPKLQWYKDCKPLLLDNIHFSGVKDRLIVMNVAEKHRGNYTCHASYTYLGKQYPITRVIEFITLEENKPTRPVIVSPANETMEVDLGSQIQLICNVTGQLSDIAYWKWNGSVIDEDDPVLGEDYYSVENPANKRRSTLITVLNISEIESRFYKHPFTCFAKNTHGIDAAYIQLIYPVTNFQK
Experiment: SPR (Reichert SR7000DC), soluble recombinant human IL-1RI, PBS with 0.005% Tween 20
Procedure: The binding properties of proteins for soluble recombinant human IL-1RI (corresponding to the extracellular domain of IL-1RI) were evaluated using surface plasmon resonance with a Reichert SR7000DC Dual Channel SPR system. Binding was evaluated in phosphate buffered saline with 0.005% Tween 20. […] Thus, the P01 protein bound to IL-1RI with a greater affinity than did IL-1β under similar conditions.

B1: IL-1Ra (ligand, UniProt P18510 26-177, looked up)
chain: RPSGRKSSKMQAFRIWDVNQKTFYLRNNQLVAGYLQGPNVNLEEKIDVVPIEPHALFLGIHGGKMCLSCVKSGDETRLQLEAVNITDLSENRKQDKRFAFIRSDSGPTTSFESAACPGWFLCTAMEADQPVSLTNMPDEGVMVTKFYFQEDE
Binder B1 has a Kd of 0.326 nM, a koff of 6.58e-05 s⁻¹ and a kon of 201000 M⁻¹ s⁻¹.
